# Results reported in PubChem BioAssay AID588692 (Broad Institute, 2011).
# The list shows a part of the results, in another mix than the full data. Calls of active or inactive are those of the source.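 Rule for the calls: active = mean luciferase reporter signal, scaled so untreated is 0 and the glycosylation-blocking control 100, at or above a set limit in every replicate; inconclusive = mean reaches the limit but not every replicate does; inactive = mean below the limit.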
# Assay: increase of ERlucT glycosylation luciferase signal, primary screen, N-linked glycosylation inhibitor project, D54 ERlucT cells, luminescence, set 2 (AID 588692);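 note: luciferase carries N-glycosylation sites so blocking glycosylation raises the light; 0% = median of neutral control wells and 100% = median of 100 nM tunicamycin wells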
# Settings: 24 h, at 12.5 µM, stronger effect = higher value, percent of 100 nM tunicamycin response
row,SMILES,reporter increase
1,COc1cc(C(=O)NCC2(N(C)C)CCCCC2)ccc1OC(F)F,inactive: -2.38%
2,CCOC(=O)N1CCC(Nc2cccc(C)c2)CC1,inactive: -0.0725%
3,O=c1[nH]c2ccccc2n1C1CCN(C(c2ccnc3ccccc23)c2nnnn2C2CCCCC2)CC1 (stereo not drawn),inactive: -4.32%
4,COc1cc(OC)cc(C(=O)NCC2(N3CCCCC3)CCCCC2)c1,inactive: -5.18%
5,CCC(c1nnnn1C1CCCCC1)N1CCC(n2c(=O)[nH]c3ccccc32)CC1 (stereo not drawn),inactive: -1.64%
6,CC(=O)N(c1ccccc1)C1CCNCC1,inactive: -1.31%
7,COc1cccc(C(c2nnnn2C2CCCCC2)N2CCC(n3c(=O)[nH]c4ccccc43)CC2)c1OC (stereo not drawn),inactive: -8.11%
8,Cc1ccc(NC2(C#N)CCN(Cc3ccccc3)CC2)cc1,inactive: 1.06%
9,Fc1ccccc1NC1CCN(Cc2ccccc2)CC1,inactive: -0.25%
10,Cc1ccc(C(=O)NCC2(N3CCCCC3)CCCCC2)o1,inactive: -3.33%
11,CC(C)(C)n1nnnc1C(c1ccnc2ccccc12)N1CCC(n2c(=O)[nH]c3ccccc32)CC1 (stereo not drawn),inactive: -5.62%
12,COc1ccc(C(c2nnnn2C2CCCCC2)N2CCC(n3c(=O)[nH]c4ccccc43)CC2)cc1 (stereo not drawn),inactive: -3.07%
13,CCN1CCC(Nc2cccc(F)c2)CC1,inactive: 1.76%
14,Cc1ccccc1NC1(C#N)CCN(Cc2ccccc2)CC1,inactive: 1.59%
15,Cn1c(=O)[nH]cc(N(CCCl)CCCl)c1=O,inactive: 0.872%
16,CN(C)c1ccc(C(=O)NCC2(N3CCCCC3)CCCCC2)cc1,inactive: -5.4%
17,O=C(NCC1(N2CCCCC2)CCCCC1)c1ccco1,inactive: -4.54%
18,CN1CCC(Nc2ccc(F)c(Cl)c2)CC1,inactive: -1.29%
19,CCOc1ncccc1C(=O)NCC1(N2CCOCC2)CCCCC1,inactive: -2.73%
20,CCCOc1ccc(C(=O)NCC2(N(C)C)CCCCC2)cc1,inactive: -1.61%
21,O=c1[nH]c2ccccc2n1C1CCN(C(c2cc3ccccc3o2)c2nnnn2C2CCCC2)CC1 (stereo not drawn),inactive: -7.04%
22,O=C(O)C1(Nc2ccccc2)CCN(Cc2ccccc2)CC1,inactive: -1.95%
23,CC(C)(C)OC(=O)N1CCC(Nc2ccccc2)CC1,inactive: 1.54%
24,CCC(CO)(C(=O)OC1CN2CCC1CC2)c1ccccc1 (stereo not drawn),inactive: -1.43%

row,SMILES,reporter increase
1,COc1cccc(C(=O)N(c2cc(C)cc(C)c2)C2CCN(C(=O)OC(C)(C)C)CC2)c1,inactive: -3.23%
2,COc1cc(OC)cc(C(=O)NCC2(N3CCOCC3)CCCCC2)c1,inactive: -3.63%
3,COc1cccc(C(c2nnnn2C2CCCC2)N2CCC(n3c(=O)[nH]c4ccccc43)CC2)c1OC (stereo not drawn),inactive: -4.07%
4,CN1CCC(Nc2ccc(Cl)cc2)CC1,inactive: -1.56%
5,O=C(NCC1(N2CCOCC2)CCCCC1)c1cc(Br)ccc1Cl,inactive: 1.48%
6,COc1cc(C(=O)NCC2(N3CCOCC3)CCCCC2)cc(OC)c1C,inactive: -2.43%
7,CCCCn1nnnc1C(c1ccccc1)N1CCC(n2c(=O)[nH]c3ccccc32)CC1 (stereo not drawn),inactive: -3.89%
8,O=c1[nH]c2ccccc2n1C1CCN(C(c2ccnc3ccccc23)c2nnnn2C2CCCC2)CC1 (stereo not drawn),inactive: -5.2%
9,COc1ccc(C(=O)NCC2(N3CCOCC3)CCCCC2)cc1OC,inactive: -8.97%
10,O=c1[nH]c2ccccc2n1C1CCN(C(c2cccs2)c2nnnn2C2CCCCC2)CC1 (stereo not drawn),inactive: -0.674%
11,N/C(=N\O)c1c(N)no[n+]1[O-],inactive: 1.91%
12,COc1cccc(C(c2nnnn2C(C)(C)C)N2CCC(n3c(=O)[nH]c4ccccc43)CC2)c1OC (stereo not drawn),inactive: -2.54%
13,CCOC(=O)N1CCC(Nc2ccc(C)cc2)CC1,inactive: 0.735%
14,CCCCn1nnnc1C(c1cccc(OC)c1OC)N1CCC(n2c(=O)[nH]c3ccccc32)CC1 (stereo not drawn),inactive: -5.37%
15,O=c1[nH]c2ccccc2n1C1CCN(C(c2cccs2)c2nnnn2C2CCCC2)CC1 (stereo not drawn),inactive: -2.83%
16,O=C(OC1CN2CCC1CC2)C1c2ccccc2C=Cc2ccccc21 (stereo not drawn),inactive: 2.62%
17,CC(C)(C)OC(=O)N1CCC(N(C(=O)c2ccccc2)c2ccc(Cl)cc2)CC1,inactive: -4.33%
18,N#Cc1ccc(C(=O)NCC2(N3CCCCC3)CCCCC2)cc1,inactive: -6.12%
19,CCCN1CCC(Nc2cc(OC)cc(OC)c2)CC1,inactive: -2.78%
20,O=c1[nH]c2ccccc2n1C1CCN(C(c2ccccc2)c2nnnn2C2CCCC2)CC1 (stereo not drawn),inactive: -1.71%
21,Cc1cc(N(CCCl)CCCl)ccc1C=O,inactive: -1.78%
22,c1ccc(CN2CCC(Nc3ccccc3)CC2)cc1,inactive: -0.484%
23,CN(C)C1(CNC(=O)c2cccc(C#N)c2)CCCCC1,inactive: -0.969%
24,CC(C)(C)n1nnnc1C(c1cccc2ccccc12)N1CCC(n2c(=O)[nH]c3ccccc32)CC1 (stereo not drawn),inactive: -11%
